According to patent US9266814B2, “Use of nitrooxy organic molecules in feed for reducing methane emission in ruminants, and/or to improve ruminant performance” (DSM IP ASSETS B.V., priority 2010, dated 2016):

Test system: methanogenesis in rumen liquor
Test: In vitro test for methane production (modified Hohenheim Forage value Test)
Format: cell-based
Settings: reduction in methane vs control, 8 hours at 39° C., average of two experiments

Row | SMILES | effect on methanogenesis (%) (0.005% DM) | effect on methanogenesis (%) (0.01% DM) | effect on methanogenesis (%) (0.05% DM) | effect on methanogenesis (%) (0.1% DM)
1 | O=[N+]([O-])OCCCO[N+](=O)[O-] | 29 | 98 | 100 | 99
2 | O=[N+]([O-])OCCCCO[N+](=O)[O-] | 16 | 92 | 100 | 100
3 | O=[N+]([O-])OCCCCCO[N+](=O)[O-] | – | – | 100 | –
4 | O=[N+]([O-])OCCOCCO[N+](=O)[O-] | 3 | 64 | 99 | 100

This is a selection: effects in other tests are not listed, and their absence says nothing.
